In patent EP2033655B1 (INSERM (Institut National de la Santé et de la Recherche …, dated 2009):

Target: T1, Nucleolin solubilized from THP-1 cell membranes (human)
T1 construct: also called protein doublet at 95 kDa
Experiment: GST pull-down on glutathione-Sepharose, immunoblot with anti-nucleolin MAb

B1: GST (glutathione S-transferase alone) (other, UniProt P08515 1-218, looked up)
chain: MSPILGYWKIKGLVQPTRLLLEYLEEKYEEHLYERDEGDKWRNKKFELGLEFPNLPYYIDGDVKLTQSMAIIRYIADKHNMLGGCPKERAEISMLEGAVLDIRYGVSRIAYSKDFETLKVDFLSKLPEMLKMFEDRLCHKTYLNGDHVTHPDFMLYDALDVVLYMDPMCLDAFPKLVCFKKRIEAIPQIDKYLKSSKYIAWPLQGWQATFGGGDHPPK
notes: also called GST alone
- binding result: no binding
